Data taken from PubChem BioAssay AID492956 (The Scripps Research Institute Molecular Screening Center, 2010).
The list shows a part of the results, in another mix than the full data. Some of these compounds have results that are not shown, active ones among them. The source made the active and inactive calls.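 The calls were made as follows: active = inhibition above the mean over all tested compounds plus 3 SD (cut at about 30% in these data); inactive = the rest.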

target: Platelet-activating factor acetylhydrolase 2, cytoplasmic (Homo sapiens) (UniProt Q99487); assay: inhibition of cytoplasmic PAF acetylhydrolase 2 – biochemical, fluorescence polarization, human, primary screen (AID 492956); conditions: recombinant PAFAH2, FP-rhodamine activity probe, at 3.39 µM, active compounds read high;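 also: inhibitors block probe labeling of enzyme so polarization drops; 0% = enzyme with DMSO and 100% = wells lacking PAFAH2 protein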

Row | SMILES | inhibition
1 | CN(C)C1CCCC1OC(=O)C(O)(c1ccccc1)c1ccccc1 (stereo not given) | inactive: -0.97%
2 | CN(C)c1ccc(C(=O)NCC2(N(C)C)CCCCC2)cc1 | inactive: -3.13%
3 | Cc1ccccc1C(=O)NCC1(N2CCCCC2)CCCCC1 | inactive: 2.53%
4 | O=C(NCC1(N2CCCCC2)CCCCC1)c1cccc(Br)c1 | inactive: 7.48%
5 | Cc1cc(C(=O)NCC2(N3CCCCC3)CCCCC2)ccc1[N+](=O)[O-] | inactive: -3.43%
6 | CCN1CCCC(OC(=O)C2(O)c3ccccc3C=Cc3ccccc32)C1 (stereo not given) | inactive: -1.1%
7 | COc1ccc(C(=O)NCC2(N(C)C)CCCCC2)cc1 | inactive: 3.44%
8 | O=C(NCC1(N2CCCCC2)CCCCC1)c1cc(F)c(F)cc1Cl | inactive: -7.33%
9 | C=CCN1CCN(CCOC(=O)C(O)(c2ccccc2)c2ccccc2)CC1 | inactive: -1.69%
10 | CN1[C@@H]2CC[C@H]1CC(OC(=O)C(O)(c1ccccc1)c1ccccc1)C2 (stereo not given in full) | inactive: -2.51%
11 | O=C(NCC1(N2CCCCC2)CCCCC1)c1cc([N+](=O)[O-])ccc1Cl | inactive: 1.06%
12 | Cc1ccc(C(=O)NCC2(N3CCCCC3)CCCCC2)cc1 | inactive: -11.1%
13 | CC(C)N1C(=O)CC2(CCN(CCOC(=O)C(O)(c3ccccc3)c3ccccc3)CC2)C1=O | inactive: 0.91%
14 | COc1cc(SC)ccc1C(=O)NCC1(N(C)C)CCCCC1 | inactive: -4.76%
15 | CCN(CC)CC(C)C(C)OC(=O)C(O)(c1ccccc1)c1ccccc1 (stereo not given) | inactive: -0.15%
16 | O=C(OC1CN2CCC1CC2)C(CO)(c1ccccc1)c1ccccc1 (stereo not given) | inactive: 2.63%
17 | CN(C)c1cccc(C(=O)NCC2(N(C)C)CCCCC2)c1 | inactive: -1.81%
18 | O=C(OCCN1CCCC1)C(O)(c1ccccc1)c1ccccc1 | inactive: 4.39%
19 | CC(C)Oc1ccc(C(=O)NCC2(N(C)C)CCCCC2)cc1 | inactive: -0.48%
20 | COc1ccc(Br)c(C(=O)NCC2(N3CCCCC3)CCCCC2)c1 | inactive: 0.51%
21 | COc1cc(C(=O)NCC2(N(C)C)CCCCC2)c([N+](=O)[O-])cc1OC | inactive: 3.39%
22 | CN(C)C1(CNC(=O)c2ccc(Br)cc2)CCCCC1 | inactive: 4.31%
23 | O=C(NCC1(N2CCCCC2)CCCCC1)c1cccc(Cl)c1 | inactive: -12.1%
24 | COc1ccc(Cl)cc1C(=O)NCC1(N(C)C)CCCCC1 | inactive: -5.14%
25 | COc1cccc(C(=O)NCC2(N3CCCCC3)CCCCC2)c1 | inactive: -1.53%
